From PubChem BioAssay (NCI)
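A five-concentration, 48-hour dose response in 96-well plates underlies each endpoint, interpolated linearly between surrounding concentrations. GI50 is the concentration that inhibits growth by half. At the TGI there is no net growth.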

Tests used:
Test in all cases: NCI-60 cell line screen, 48 h
HCT-116 colon = system: HCT-116 colon
NCI-H522 lung = system: NCI-H522 lung
A498 renal = system: A498 renal
SR leukemia = system: SR leukemia
SK-MEL-2 melanoma = system: SK-MEL-2 melanoma
SF-268 CNS = system: SF-268 CNS
HOP-62 NSCLC = system: HOP-62 NSCLC
SW-620 colon = system: SW-620 colon
NCI-H460 lung = system: NCI-H460 lung
UO-31 renal = system: UO-31 renal
NCI-H226 lung = system: NCI-H226 lung
HS 578T breast = system: HS 578T breast
SF-539 CNS = system: SF-539 CNS
SNB-75 CNS = system: SNB-75 CNS
HOP-92 NSCLC = system: HOP-92 NSCLC
PC-3 prostate = system: PC-3 prostate
SF-295 CNS = system: SF-295 CNS
HL-60(TB) leukemia = system: HL-60(TB) leukemia
786-0 renal = system: 786-0 renal
KM12 colon = system: KM12 colon
NCI-H322M lung = system: NCI-H322M lung
IGROV1 ovarian = system: IGROV1 ovarian
COLO 205 colon = system: COLO 205 colon
CAKI-1 renal = system: CAKI-1 renal
HCC-2998 colon = system: HCC-2998 colon
MALME-3M melanoma = system: MALME-3M melanoma
M14 melanoma = system: M14 melanoma
RPMI-8226 leukemia = system: RPMI-8226 leukemia
SK-OV-3 ovarian = system: SK-OV-3 ovarian
OVCAR-3 ovarian = system: OVCAR-3 ovarian
EKVX NSCLC = system: EKVX NSCLC
T-47D breast = system: T-47D breast
HT29 colon = system: HT29 colon
LOX IMVI melanoma = system: LOX IMVI melanoma
SNB-19 CNS = system: SNB-19 CNS
CCRF-CEM leukemia = system: CCRF-CEM leukemia
MDA-MB-231 breast = system: MDA-MB-231 breast
OVCAR-5 ovarian = system: OVCAR-5 ovarian
ACHN renal = system: ACHN renal
HCT-15 colon = system: HCT-15 colon
DU-145 prostate = system: DU-145 prostate
SK-MEL-28 melanoma = system: SK-MEL-28 melanoma
UACC-257 melanoma = system: UACC-257 melanoma
TK-10 renal = system: TK-10 renal
MOLT-4 leukemia = system: MOLT-4 leukemia
MCF7 breast = system: MCF7 breast
MDA-MB-435 = system: MDA-MB-435
K-562 leukemia = system: K-562 leukemia
U251 CNS = system: U251 CNS
OVCAR-4 ovarian = system: OVCAR-4 ovarian
BT-549 breast = system: BT-549 breast
SK-MEL-5 melanoma = system: SK-MEL-5 melanoma
RXF 393 renal = system: RXF 393 renal
NCI/ADR-RES ovarian = system: NCI/ADR-RES ovarian
OVCAR-8 ovarian = system: OVCAR-8 ovarian
SN12C renal = system: SN12C renal
A549 NSCLC = system: A549 NSCLC
NCI-H23 lung = system: NCI-H23 lung
UACC-62 melanoma = system: UACC-62 melanoma

SMILES: NC(Cc1ccccc1N(CCCl)CCCl)C(=O)O (stereo not drawn)
- GI50 (HCT-116 colon): 30.8 µM
- TGI (HCT-116 colon): > 100 µM
- GI50 (NCI-H522 lung): 18.7 µM
- TGI (NCI-H522 lung): > 100 µM
- GI50 (A498 renal): 72.5 µM
- TGI (A498 renal): > 100 µM
- GI50 (SR leukemia): 4.65 µM
- TGI (SR leukemia): > 100 µM
- GI50 (SK-MEL-2 melanoma): 95.9 µM
- TGI (SK-MEL-2 melanoma): > 100 µM
- GI50 (SF-268 CNS): 5.67 µM
- TGI (SF-268 CNS): > 100 µM
- GI50 (HOP-62 NSCLC): 48.9 µM
- TGI (HOP-62 NSCLC): > 100 µM
- GI50 (SW-620 colon): 16.3 µM
- TGI (SW-620 colon): > 100 µM
- GI50 (NCI-H460 lung): 2.18 µM
- TGI (NCI-H460 lung): > 100 µM
- GI50 (UO-31 renal): 12.6 µM
- TGI (UO-31 renal): > 100 µM
- GI50 (NCI-H226 lung): > 100 µM
- TGI (NCI-H226 lung): > 100 µM
- GI50 (HS 578T breast): 78.4 µM
- TGI (HS 578T breast): > 100 µM
- GI50 (SF-539 CNS): 4.82 µM
- TGI (SF-539 CNS): 68.9 µM
- GI50 (SNB-75 CNS): 9.49 µM
- TGI (SNB-75 CNS): > 100 µM
- GI50 (HOP-92 NSCLC): 33.1 µM
- TGI (HOP-92 NSCLC): > 100 µM
- GI50 (PC-3 prostate): 86.9 µM
- TGI (PC-3 prostate): > 100 µM
- GI50 (SF-295 CNS): 3.34 µM
- TGI (SF-295 CNS): > 100 µM
- GI50 (HL-60(TB) leukemia): 1.67 µM
- TGI (HL-60(TB) leukemia): 11.5 µM
- GI50 (786-0 renal): 12.3 µM
- TGI (786-0 renal): 58.4 µM
- GI50 (KM12 colon): 74.7 µM
- TGI (KM12 colon): > 100 µM
- GI50 (NCI-H322M lung): > 100 µM
- TGI (NCI-H322M lung): > 100 µM
- GI50 (IGROV1 ovarian): 17.9 µM
- TGI (IGROV1 ovarian): > 100 µM
- GI50 (COLO 205 colon): 30.7 µM
- TGI (COLO 205 colon): > 100 µM
- GI50 (CAKI-1 renal): 5.21 µM
- TGI (CAKI-1 renal): > 100 µM
- GI50 (HCC-2998 colon): 32.4 µM
- TGI (HCC-2998 colon): > 100 µM
- GI50 (MALME-3M melanoma): 31.7 µM
- TGI (MALME-3M melanoma): > 100 µM
- GI50 (M14 melanoma): 16.1 µM
- TGI (M14 melanoma): > 100 µM
- GI50 (RPMI-8226 leukemia): 30 µM
- TGI (RPMI-8226 leukemia): 86.7 µM
- GI50 (SK-OV-3 ovarian): 20.7 µM
- TGI (SK-OV-3 ovarian): > 100 µM
- GI50 (OVCAR-3 ovarian): 23.1 µM
- TGI (OVCAR-3 ovarian): 83.5 µM
- GI50 (EKVX NSCLC): 66.2 µM
- TGI (EKVX NSCLC): > 100 µM
- GI50 (T-47D breast): 10.4 µM
- TGI (T-47D breast): > 100 µM
- GI50 (HT29 colon): 77.3 µM
- TGI (HT29 colon): > 100 µM
- GI50 (LOX IMVI melanoma): 10.2 µM
- TGI (LOX IMVI melanoma): > 100 µM
- GI50 (SNB-19 CNS): 15.3 µM
- TGI (SNB-19 CNS): > 100 µM
- GI50 (CCRF-CEM leukemia): 1.35 µM
- TGI (CCRF-CEM leukemia): > 100 µM
- GI50 (MDA-MB-231 breast): > 100 µM
- TGI (MDA-MB-231 breast): > 100 µM
- GI50 (OVCAR-5 ovarian): 83.2 µM
- TGI (OVCAR-5 ovarian): > 100 µM
- GI50 (ACHN renal): 4.77 µM
- TGI (ACHN renal): > 100 µM
- GI50 (HCT-15 colon): 28.5 µM
- TGI (HCT-15 colon): > 100 µM
- GI50 (DU-145 prostate): 7.03 µM
- TGI (DU-145 prostate): 96.6 µM
- GI50 (SK-MEL-28 melanoma): 38.8 µM
- TGI (SK-MEL-28 melanoma): > 100 µM
- GI50 (UACC-257 melanoma): 68.7 µM
- TGI (UACC-257 melanoma): > 100 µM
- GI50 (TK-10 renal): > 100 µM
- TGI (TK-10 renal): > 100 µM
- GI50 (MOLT-4 leukemia): 3.38 µM
- TGI (MOLT-4 leukemia): 80 µM
- GI50 (MCF7 breast): 3.08 µM
- TGI (MCF7 breast): > 100 µM
- GI50 (MDA-MB-435): > 100 µM
- TGI (MDA-MB-435): > 100 µM
- GI50 (K-562 leukemia): 29.1 µM
- TGI (K-562 leukemia): > 100 µM
- GI50 (U251 CNS): 12.6 µM
- TGI (U251 CNS): > 100 µM
- GI50 (OVCAR-4 ovarian): > 100 µM
- TGI (OVCAR-4 ovarian): > 100 µM
- GI50 (BT-549 breast): 31 µM
- TGI (BT-549 breast): > 100 µM
- GI50 (SK-MEL-5 melanoma): 61.1 µM
- TGI (SK-MEL-5 melanoma): > 100 µM
- GI50 (RXF 393 renal): 38.6 µM
- TGI (RXF 393 renal): > 100 µM
- GI50 (NCI/ADR-RES ovarian): 30.3 µM
- TGI (NCI/ADR-RES ovarian): > 100 µM
- GI50 (OVCAR-8 ovarian): 47.7 µM
- TGI (OVCAR-8 ovarian): > 100 µM
- GI50 (SN12C renal): 5.8 µM
- TGI (SN12C renal): > 100 µM
- GI50 (A549 NSCLC): 47.6 µM
- TGI (A549 NSCLC): > 100 µM
- GI50 (NCI-H23 lung): 23.3 µM
- TGI (NCI-H23 lung): > 100 µM
- GI50 (UACC-62 melanoma): 6.2 µM
- TGI (UACC-62 melanoma): > 100 µM
